For 7 compounds, inhibition results are on record in US6583180B2, “Glucocorticoid receptor modulators” (Abbott Laboratories, priority 2001, dated 2003).

For this test, the target named is T1, Human glucocorticoid receptors (Homo sapiens, UniProt P04150).
T1 construct: made in house; host or cells: Sf9 insect cells, recombinant baculovirus (BAC-TO-BAC)
T1 sequence (P04150 1-777): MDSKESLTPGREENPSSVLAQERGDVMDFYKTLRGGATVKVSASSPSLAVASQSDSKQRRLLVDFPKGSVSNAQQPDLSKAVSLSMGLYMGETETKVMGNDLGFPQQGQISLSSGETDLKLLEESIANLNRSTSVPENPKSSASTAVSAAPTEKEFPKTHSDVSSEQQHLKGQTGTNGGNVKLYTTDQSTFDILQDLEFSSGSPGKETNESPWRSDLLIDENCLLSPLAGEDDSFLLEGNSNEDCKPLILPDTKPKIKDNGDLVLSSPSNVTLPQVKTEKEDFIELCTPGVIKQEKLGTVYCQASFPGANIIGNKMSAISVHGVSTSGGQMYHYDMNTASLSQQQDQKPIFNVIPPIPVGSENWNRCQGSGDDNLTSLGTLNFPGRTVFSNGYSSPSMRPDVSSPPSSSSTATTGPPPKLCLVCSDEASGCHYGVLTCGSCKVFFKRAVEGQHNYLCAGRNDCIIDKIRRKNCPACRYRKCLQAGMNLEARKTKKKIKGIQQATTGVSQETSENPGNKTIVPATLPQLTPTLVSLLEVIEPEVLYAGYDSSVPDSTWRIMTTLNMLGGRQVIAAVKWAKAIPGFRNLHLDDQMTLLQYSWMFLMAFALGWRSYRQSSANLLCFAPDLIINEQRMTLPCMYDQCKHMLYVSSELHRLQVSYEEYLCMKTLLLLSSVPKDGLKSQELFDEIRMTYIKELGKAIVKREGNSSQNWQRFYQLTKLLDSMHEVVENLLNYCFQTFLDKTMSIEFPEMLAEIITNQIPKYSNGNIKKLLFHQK
The test is described as follows: Radioligand filter binding assay, displacement of 3[H]-dexamethasone from hGR. The following applies: read-out: GR Binding (% Inhibition at 1.7 μM).

By inhibition is commonly meant the drop in the measured response relative to a control, in per cent. For the compound `Cc1c(NS(C)(=O)=O)cccc1N(Cc1ccc(Oc2ccc(CCC(=O)O)cc2)cc1)Cc1ccc(F)cc1F` [Example 50, N-{3-[(4-(4-(2-carboxyethyl)phenoxy)benzyl)(2,4-difluorobenzyl)amino]-2-methylphenyl}methanesulfonamide], the inhibition at 1.7 µM turned out to be 92.9%.

As for `Cc1c(NS(C)(=O)=O)cccc1N(Cc1ccccc1)Cc1ccc(Oc2cccc(OCC(=O)O)c2)cc1` [Example 62, (3-{4-[(benzyl{2-methyl-3-[(methylsulfonyl)amino]phenyl}amino)methyl]phenoxy}phenoxy)acetic acid], the inhibition at 1.7 µM is 89.1%.

On to `Cc1c(NS(C)(=O)=O)cccc1N(Cc1ccccc1)Cc1ccc(Oc2ccc(CCCC(=O)NCC(=O)O)cc2)cc1` [Example 107, N-[4-(4-{4-[(benzyl{2-methyl-3-[(methylsulfonyl)amino]phenyl}amino)methyl]phenoxy}phenyl)butanoyl]glycine], for which the inhibition at 1.7 µM was 95.9%.

`Cc1c(NS(C)(=O)=O)cccc1N(Cc1ccccc1)Cc1ccc(Oc2cccc(OCCCC(=O)O)c2)cc1` [Example 116, 4-(3-{4-[(benzyl{2-methyl-3-[(methylsulfonyl)amino]phenyl}amino)methyl]phenoxy}phenoxy)butanoic acid]: the inhibition at 1.7 µM worked out at 95.3%.

As to `Cc1c(NS(C)(=O)=O)cccc1N(Cc1ccccc1)Cc1ccc(Oc2ccc(OC[C@@H]3C[C@@H](O)CC(=O)O3)cc2)cc1` [Example 235, N-(3-(benzyl(4-(4-(((2S, 4R)-6-oxo-4hydroxytetrahydro-2H-pyran-2-yl)methoxy)phenoxy)benzyl)amino)-2-methylphenyl)methanesulfonamide], the inhibition at 1.7 µM amounted to 96.7%.

As to `Cc1c(NS(C)(=O)=O)cccc1N(Cc1ccccc1)Cc1ccc(Oc2ccc(OCCCC(=O)NCCCC(=O)O)cc2)cc1` [Example 253, 4-{[4-(4-{4-[(benzyl{2-methyl-3-[(methylsulfonyl)amino]phenyl}amino)methyl]phenoxy}phenoxy)butanoyl]amino}butanoic acid], the inhibition at 1.7 µM came to 93.2%.

For the compound `Cc1c(NS(C)(=O)=O)cccc1N(Cc1ccc(Oc2ccc(F)c(OCC(=O)O)c2)cc1)Cc1ccc(F)cc1F` [Example 305, (5-(4-(((2,4-difluorobenzyl)(2-methyl-3-((methylsulfonyl)amino)phenyl)amino)methyl)phenoxy)-2-fluorophenoxy)acetic acid], the inhibition at 1.7 µM was determined as 96.6%.
